The results in this text go back to patent publication US7205343B2, “Stabilized bioactive preparations and method of use” (priority 1997, dated 2007).

This series in a line: Gentamicin biodistribution in lung lobes by immunoassay. In kind it is in vivo, New Zealand white rabbits. The following applies: rabbits, one hour post-administration. The procedure:
Comparison of biodistribution in New Zealand white rabbits at one hour post-administration of 5 mg/kg gentamicin by either IM or LDI methods was performed. The gentamicin was administered in an LDI volume of only 1.8 ml/kg. Individual lobes of the lungs were collected and analyzed quantitatively for gentamicin by an immunoassay method. The lung gentamicin concentrations were ca. 2 orders of magnitude higher following local administration (LDI) than for IM administration. Excellent biodistribution across the lung lobes was observed following either IM or LDI administration.

Turning to gentamicin, where the note is “5 mg/kg IM”, the “Gentamicin in lung, Left Lower” value turned out to be 6.1 μg gentamicin/g tissue; the “Gentamicin in lung, Left Upper” value is reported as 6.7 μg gentamicin/g tissue; the “Gentamicin in lung, Right Lower” value was found to be 6.4 μg gentamicin/g tissue; the “Gentamicin in lung, Right Mid” value was 6.0 μg gentamicin/g tissue. Besides, the “Gentamicin in lung, Right Upper” value (5 mg/kg IM) is listed as 5.0 μg gentamicin/g tissue. For the same substance, under “5 mg/kg LDI, volume 1.8 ml/kg”, the “Gentamicin in lung, Left Lower” value came out at 412.9 μg gentamicin/g tissue; the “Gentamicin in lung, Left Upper” value is recorded as 206.3 μg gentamicin/g tissue; the “Gentamicin in lung, Right Lower” value amounted to 646.7 μg gentamicin/g tissue; the “Gentamicin in lung, Right Mid” value is reported as 564.3 μg gentamicin/g tissue. Besides, under “5 mg/kg LDI, volume 1.8 ml/kg”, the “Gentamicin in lung, Right Upper” value is reported as 680.5 μg gentamicin/g tissue.
